The values that follow come from patent US20120157395A1, “ANTI-INFLAMMATORY AGENT FOR ORAL APPLICATION, AND ANTI-INFLAMMATORY PEPTIDE FOR ORAL APPLICATION” (priority 2009, published 2012).

A short description of the data set: Identification of absorbed peptides in plasma (PDA-HPLC, LC-MS/MS). The class given is in vivo. To be noted: pigs fed Peptide Composition 1 (Example 1), blood collected during dissection; 3 peptide peaks present. On the procedure:
First, between 3 and 5 day-old 18 pigs were divided into 3 groups and they were bred for 3 days. Then the groups were designated as test groups (Example 1 and Comparative Example 1) and a control group (Comparative Example 2) and 1.25 g of dextran sulfate per kg of body weight was given as drinking water for 5 days (DSS treatment). Then, 250 mg of Peptide Composition 1 per kg of body weight was fed for 5 days in Example 1, 250 mg of Peptide Composition 2 per kg of body weight was fed for 5 days in Comparative Example 1, and alanine corresponding to the nitrogen content of the peptide was fed in Comparative Example 2. After that, the intestinal tract cells were collected during dissection and cytokines were measured. Comparative Example 2 corresponds to the control. (Dextran sulfate is a substance which induces bowel inflammation. International J. of Colorectal Disease, 15, 144-160 (2000))
Blood was collected during dissection and plasma was isolated, and then the structural analysis of a peak obtained by PDA-HPLC was carried out by LC-MS/MS to identify an amino acid sequence of the peptides.

Turning to `CC(C)[C@H](N)C(=O)N1CCC[C@H]1C(=O)N[C@@H](Cc1ccc(O)cc1)C(=O)O` [VPY, Val-Pro-Tyr], the “peptide peak present in plasma” value is reported as “second largest peak”.
